Reference: US20230109218A1 (BIOATLA, published 2023)

Molecular target: T1, recombinant human HER2 antigen (human, UniProt P04626, in part)
T1 construct: also called human HER2 protein
Experiment: pH range ELISA on coated recombinant human HER2, antibody 100 ng/mL, pH 5.0-7.4; pH of 50% binding (binding at pH 6.0 = 100%)

| Binder | pH inflection point |
| --- | --- |
| LC A032D/HC Y052K conditionally active anti-HER2 antibody (antibody, V domains shown, also called BA-130-03-02) VH: [about 120 residues with changes not printed] VL: DIQMTQSPSSLSASVGDRVTITCRASQDVNTDVAWYQQKPGKAPKLLIYSASFLYSGVPSRFSGSRSGTDFTLTISSLQPEDFATYYCQQHYTTPPTFGQGTKVEIK | 6.22 pH |
| LC A032D/HC G056K conditionally active anti-HER2 antibody (antibody, V domains shown, also called BA-130-03-05) VH: [about 120 residues with changes not printed] VL: DIQMTQSPSSLSASVGDRVTITCRASQDVNTDVAWYQQKPGKAPKLLIYSASFLYSGVPSRFSGSRSGTDFTLTISSLQPEDFATYYCQQHYTTPPTFGQGTKVEIK | 6.23 pH |
| LC-A032D / HC-N055A conditionally active anti-HER2 antibody (antibody, V domains shown) VH: [about 120 residues with changes not printed] VL: DIQMTQSPSSLSASVGDRVTITCRASQDVNTDVAWYQQKPGKAPKLLIYSASFLYSGVPSRFSGSRSGTDFTLTISSLQPEDFATYYCQQHYTTPPTFGQGTKVEIK | 6.3 pH |
| LC-A032D / HC-N028W conditionally active anti-HER2 antibody (antibody, V domains shown) VH: [about 120 residues with changes not printed] VL: DIQMTQSPSSLSASVGDRVTITCRASQDVNTDVAWYQQKPGKAPKLLIYSASFLYSGVPSRFSGSRSGTDFTLTISSLQPEDFATYYCQQHYTTPPTFGQGTKVEIK | 6.05 pH |

Further lines, results first:

| pH inflection point | Binder |
| --- | --- |
| 5.45 pH | LC A032D/HC T058D conditionally active anti-HER2 antibody (antibody, V domains shown, also called BA-130-03-06) VH: [about 120 residues with changes not printed] VL: DIQMTQSPSSLSASVGDRVTITCRASQDVNTDVAWYQQKPGKAPKLLIYSASFLYSGVPSRFSGSRSGTDFTLTISSLQPEDFATYYCQQHYTTPPTFGQGTKVEIK |
| 6.13 pH | LC-A032D / HC-Y052O conditionally active anti-HER2 antibody (antibody, V domains shown) VH: [about 120 residues with changes not printed] VL: DIQMTQSPSSLSASVGDRVTITCRASQDVNTDVAWYQQKPGKAPKLLIYSASFLYSGVPSRFSGSRSGTDFTLTISSLQPEDFATYYCQQHYTTPPTFGQGTKVEIK |
| 6.22 pH | LC A032D/HC S119E conditionally active anti-HER2 antibody (antibody, V domains shown, also called BA-130-03-08) VH: [about 120 residues with changes not printed] VL: DIQMTQSPSSLSASVGDRVTITCRASQDVNTDVAWYQQKPGKAPKLLIYSASFLYSGVPSRFSGSRSGTDFTLTISSLQPEDFATYYCQQHYTTPPTFGQGTKVEIK |
